Laboratory results reported in PubChem BioAssay (NCI).
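A five-concentration, 48-hour dose response in 96-well plates underlies each endpoint, interpolated linearly between surrounding concentrations. GI50 marks 50% less growth. TGI: total growth inhibition.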

What was measured:
Assay in all cases: NCI-60 cell line screen, 48 h
SN12C renal = test system: SN12C renal
NCI-H23 lung = test system: NCI-H23 lung
HCT-116 colon = test system: HCT-116 colon
MCF7 breast = test system: MCF7 breast
EKVX NSCLC = test system: EKVX NSCLC
SF-268 CNS = test system: SF-268 CNS
HT29 colon = test system: HT29 colon
UO-31 renal = test system: UO-31 renal
T-47D breast = test system: T-47D breast
KM12 colon = test system: KM12 colon
IGROV1 ovarian = test system: IGROV1 ovarian
DU-145 prostate = test system: DU-145 prostate
LOX IMVI melanoma = test system: LOX IMVI melanoma
A549 NSCLC = test system: A549 NSCLC
SF-295 CNS = test system: SF-295 CNS
OVCAR-8 ovarian = test system: OVCAR-8 ovarian
TK-10 renal = test system: TK-10 renal
HL-60(TB) leukemia = test system: HL-60(TB) leukemia
M14 melanoma = test system: M14 melanoma
K-562 leukemia = test system: K-562 leukemia
NCI-H522 lung = test system: NCI-H522 lung
MDA-MB-231 breast = test system: MDA-MB-231 breast
PC-3 prostate = test system: PC-3 prostate
HCT-15 colon = test system: HCT-15 colon
NCI-H460 lung = test system: NCI-H460 lung
NCI-H322M lung = test system: NCI-H322M lung
SW-620 colon = test system: SW-620 colon
SNB-75 CNS = test system: SNB-75 CNS
OVCAR-4 ovarian = test system: OVCAR-4 ovarian
NCI/ADR-RES ovarian = test system: NCI/ADR-RES ovarian
BT-549 breast = test system: BT-549 breast
A498 renal = test system: A498 renal
UACC-62 melanoma = test system: UACC-62 melanoma
RPMI-8226 leukemia = test system: RPMI-8226 leukemia
786-0 renal = test system: 786-0 renal
OVCAR-5 ovarian = test system: OVCAR-5 ovarian
SK-MEL-2 melanoma = test system: SK-MEL-2 melanoma
ACHN renal = test system: ACHN renal
U251 CNS = test system: U251 CNS
UACC-257 melanoma = test system: UACC-257 melanoma
MDA-MB-435 = test system: MDA-MB-435
OVCAR-3 ovarian = test system: OVCAR-3 ovarian
SF-539 CNS = test system: SF-539 CNS
SNB-19 CNS = test system: SNB-19 CNS
HOP-62 NSCLC = test system: HOP-62 NSCLC
COLO 205 colon = test system: COLO 205 colon
SK-OV-3 ovarian = test system: SK-OV-3 ovarian
MDA-N = test system: MDA-N
SR leukemia = test system: SR leukemia
SK-MEL-28 melanoma = test system: SK-MEL-28 melanoma
SK-MEL-5 melanoma = test system: SK-MEL-5 melanoma
NCI-H226 lung = test system: NCI-H226 lung
CCRF-CEM leukemia = test system: CCRF-CEM leukemia
HS 578T breast = test system: HS 578T breast
CAKI-1 renal = test system: CAKI-1 renal
MOLT-4 leukemia = test system: MOLT-4 leukemia

Work on COc1cc([N+](=O)[O-])c([N+](=O)[O-])cc1N yielded a GI50 (SN12C renal) greater than 100 µM, a TGI (SN12C renal) greater than 100 µM and a GI50 (NCI-H23 lung) greater than 100 µM. The TGI (NCI-H23 lung) was greater than 100 µM, the GI50 (HCT-116 colon) was greater than 100 µM and the TGI (HCT-116 colon) was greater than 100 µM. For the same compound, the GI50 (MCF7 breast) was 91 µM, the TGI (MCF7 breast) was greater than 100 µM and the GI50 (EKVX NSCLC) was greater than 100 µM. The TGI (EKVX NSCLC) was greater than 100 µM, the GI50 (SF-268 CNS) was greater than 100 µM and the TGI (SF-268 CNS) was greater than 100 µM. For the same compound, the GI50 (HT29 colon) was 37.5 µM, the TGI (HT29 colon) was greater than 100 µM and the GI50 (UO-31 renal) was greater than 100 µM. For the same compound, the TGI (UO-31 renal) was greater than 100 µM, the GI50 (T-47D breast) was 47.7 µM and the TGI (T-47D breast) was greater than 100 µM. The GI50 (KM12 colon) was greater than 100 µM, the TGI (KM12 colon) was greater than 100 µM and the GI50 (IGROV1 ovarian) was greater than 100 µM. It also gave a TGI (IGROV1 ovarian) greater than 100 µM, a GI50 (DU-145 prostate) greater than 100 µM and a TGI (DU-145 prostate) greater than 100 µM. For the same compound, the GI50 (LOX IMVI melanoma) was 27.2 µM, the TGI (LOX IMVI melanoma) was greater than 100 µM and the GI50 (A549 NSCLC) was 66.5 µM. The TGI (A549 NSCLC) was greater than 100 µM, the GI50 (SF-295 CNS) was greater than 100 µM and the TGI (SF-295 CNS) was greater than 100 µM. For the same compound, the GI50 (OVCAR-8 ovarian) was greater than 100 µM, the TGI (OVCAR-8 ovarian) was greater than 100 µM and the GI50 (TK-10 renal) was greater than 100 µM. For the same compound, the TGI (TK-10 renal) was greater than 100 µM, the GI50 (HL-60(TB) leukemia) was 35.9 µM and the TGI (HL-60(TB) leukemia) was greater than 100 µM. For the same compound, the GI50 (M14 melanoma) was greater than 100 µM, the TGI (M14 melanoma) was greater than 100 µM and the GI50 (K-562 leukemia) was 36 µM. For the same compound, the TGI (K-562 leukemia) was greater than 100 µM, the GI50 (NCI-H522 lung) was 55.7 µM and the TGI (NCI-H522 lung) was greater than 100 µM. The GI50 (MDA-MB-231 breast) was greater than 100 µM, the TGI (MDA-MB-231 breast) was greater than 100 µM and the GI50 (PC-3 prostate) was greater than 100 µM. For the same compound, the TGI (PC-3 prostate) was greater than 100 µM, the GI50 (HCT-15 colon) was greater than 100 µM and the TGI (HCT-15 colon) was greater than 100 µM. For the same compound, the GI50 (NCI-H460 lung) was 36.9 µM, the TGI (NCI-H460 lung) was greater than 100 µM and the GI50 (NCI-H322M lung) was greater than 100 µM. It also gave a TGI (NCI-H322M lung) greater than 100 µM, a GI50 (SW-620 colon) greater than 100 µM and a TGI (SW-620 colon) greater than 100 µM. It also gave a GI50 (SNB-75 CNS) of 76.2 µM, a TGI (SNB-75 CNS) greater than 100 µM and a GI50 (OVCAR-4 ovarian) greater than 100 µM. The TGI (OVCAR-4 ovarian) was greater than 100 µM, the GI50 (NCI/ADR-RES ovarian) was greater than 100 µM and the TGI (NCI/ADR-RES ovarian) was greater than 100 µM. It also gave a GI50 (BT-549 breast) greater than 100 µM, a TGI (BT-549 breast) greater than 100 µM and a GI50 (A498 renal) greater than 100 µM. The TGI (A498 renal) was greater than 100 µM, the GI50 (UACC-62 melanoma) was greater than 100 µM and the TGI (UACC-62 melanoma) was greater than 100 µM. For the same compound, the GI50 (RPMI-8226 leukemia) was greater than 100 µM, the TGI (RPMI-8226 leukemia) was greater than 100 µM and the GI50 (786-0 renal) was 52 µM. It also gave a TGI (786-0 renal) greater than 100 µM, a GI50 (OVCAR-5 ovarian) greater than 100 µM and a TGI (OVCAR-5 ovarian) greater than 100 µM. It also gave a GI50 (SK-MEL-2 melanoma) greater than 100 µM, a TGI (SK-MEL-2 melanoma) greater than 100 µM and a GI50 (ACHN renal) greater than 100 µM. For the same compound, the TGI (ACHN renal) was greater than 100 µM, the GI50 (U251 CNS) was greater than 100 µM and the TGI (U251 CNS) was greater than 100 µM. The GI50 (UACC-257 melanoma) was 98.3 µM, the TGI (UACC-257 melanoma) was greater than 100 µM and the GI50 (MDA-MB-435) was greater than 100 µM. It also gave a TGI (MDA-MB-435) greater than 100 µM, a GI50 (OVCAR-3 ovarian) greater than 100 µM and a TGI (OVCAR-3 ovarian) greater than 100 µM. The GI50 (SF-539 CNS) was 85 µM, the TGI (SF-539 CNS) was greater than 100 µM and the GI50 (SNB-19 CNS) was greater than 100 µM. The TGI (SNB-19 CNS) was greater than 100 µM, the GI50 (HOP-62 NSCLC) was greater than 100 µM and the TGI (HOP-62 NSCLC) was greater than 100 µM. It also gave a GI50 (COLO 205 colon) of 69 µM, a TGI (COLO 205 colon) greater than 100 µM and a GI50 (SK-OV-3 ovarian) greater than 100 µM. The TGI (SK-OV-3 ovarian) was greater than 100 µM, the GI50 (MDA-N) was 71.3 µM and the TGI (MDA-N) was greater than 100 µM. It also gave a GI50 (SR leukemia) of 44 µM, a TGI (SR leukemia) greater than 100 µM and a GI50 (SK-MEL-28 melanoma) greater than 100 µM. It also gave a TGI (SK-MEL-28 melanoma) greater than 100 µM, a GI50 (SK-MEL-5 melanoma) greater than 100 µM and a TGI (SK-MEL-5 melanoma) greater than 100 µM. The GI50 (NCI-H226 lung) was greater than 100 µM, the TGI (NCI-H226 lung) was greater than 100 µM and the GI50 (CCRF-CEM leukemia) was 31.2 µM. The TGI (CCRF-CEM leukemia) was greater than 100 µM, the GI50 (HS 578T breast) was greater than 100 µM and the TGI (HS 578T breast) was greater than 100 µM. The GI50 (CAKI-1 renal) was greater than 100 µM, the TGI (CAKI-1 renal) was greater than 100 µM and the GI50 (MOLT-4 leukemia) was 26.2 µM. For the same compound, the TGI (MOLT-4 leukemia) was greater than 100 µM.
